Test results reported in patent US20070155746A1, “NOVEL SUBSTITUTED PYRIDINYLOXY AND PYRIMIDINYLOXY AMIDES USEFUL AS INHIBITORS OF PROTEIN KINASES” (KALYPSYS, INC., priority 2005, published 2007).

Protein sequences, listed by entry. Tags and fused reporters are not part of them. Residues count along the entry.
UniProt P15056, 416-766 limits assumed: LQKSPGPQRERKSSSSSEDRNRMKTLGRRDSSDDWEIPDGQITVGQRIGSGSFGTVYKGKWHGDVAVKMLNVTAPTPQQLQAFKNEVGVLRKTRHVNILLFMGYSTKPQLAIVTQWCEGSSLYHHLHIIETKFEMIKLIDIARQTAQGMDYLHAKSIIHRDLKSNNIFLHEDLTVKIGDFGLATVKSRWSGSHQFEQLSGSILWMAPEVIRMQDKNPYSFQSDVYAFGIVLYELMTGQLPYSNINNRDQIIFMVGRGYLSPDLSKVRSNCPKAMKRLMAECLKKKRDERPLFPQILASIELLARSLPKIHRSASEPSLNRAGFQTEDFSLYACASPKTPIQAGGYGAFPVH
UniProt P35968, 20-1356 limits assumed: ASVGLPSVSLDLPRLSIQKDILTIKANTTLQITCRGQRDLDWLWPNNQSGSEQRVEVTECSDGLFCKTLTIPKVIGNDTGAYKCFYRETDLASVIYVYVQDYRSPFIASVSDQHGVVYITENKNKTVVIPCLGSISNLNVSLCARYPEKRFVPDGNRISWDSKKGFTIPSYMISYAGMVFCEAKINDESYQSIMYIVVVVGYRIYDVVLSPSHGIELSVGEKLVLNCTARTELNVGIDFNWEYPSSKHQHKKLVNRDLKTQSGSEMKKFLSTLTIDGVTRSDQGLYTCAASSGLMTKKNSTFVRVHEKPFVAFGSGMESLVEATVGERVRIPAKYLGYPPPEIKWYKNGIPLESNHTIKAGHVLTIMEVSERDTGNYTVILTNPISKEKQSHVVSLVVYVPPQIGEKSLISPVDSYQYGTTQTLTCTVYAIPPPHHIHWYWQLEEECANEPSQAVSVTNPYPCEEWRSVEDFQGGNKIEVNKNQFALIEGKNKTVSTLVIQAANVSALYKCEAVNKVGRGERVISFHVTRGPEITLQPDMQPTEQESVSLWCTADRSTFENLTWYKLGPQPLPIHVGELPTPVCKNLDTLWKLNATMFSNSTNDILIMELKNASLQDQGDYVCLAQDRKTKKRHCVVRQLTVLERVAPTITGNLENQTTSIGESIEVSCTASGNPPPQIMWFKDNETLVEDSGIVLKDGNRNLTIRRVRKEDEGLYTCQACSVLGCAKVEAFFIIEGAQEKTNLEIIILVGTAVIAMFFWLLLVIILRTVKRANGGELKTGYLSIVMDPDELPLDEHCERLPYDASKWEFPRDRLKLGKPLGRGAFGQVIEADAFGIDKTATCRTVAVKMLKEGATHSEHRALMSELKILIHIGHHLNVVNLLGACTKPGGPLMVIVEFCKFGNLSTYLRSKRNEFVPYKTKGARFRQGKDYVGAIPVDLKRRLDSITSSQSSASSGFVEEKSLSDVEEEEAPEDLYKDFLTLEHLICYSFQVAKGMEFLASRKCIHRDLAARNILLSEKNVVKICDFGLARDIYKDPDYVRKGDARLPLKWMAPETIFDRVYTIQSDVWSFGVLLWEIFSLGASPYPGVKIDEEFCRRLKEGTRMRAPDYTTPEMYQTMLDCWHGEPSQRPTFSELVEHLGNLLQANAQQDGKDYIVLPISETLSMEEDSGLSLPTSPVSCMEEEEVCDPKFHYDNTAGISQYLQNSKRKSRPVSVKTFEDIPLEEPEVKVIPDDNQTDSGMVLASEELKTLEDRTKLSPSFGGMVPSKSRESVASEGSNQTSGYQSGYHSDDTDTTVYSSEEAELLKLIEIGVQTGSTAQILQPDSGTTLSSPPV
UniProt P09619, 33-1106 limits assumed: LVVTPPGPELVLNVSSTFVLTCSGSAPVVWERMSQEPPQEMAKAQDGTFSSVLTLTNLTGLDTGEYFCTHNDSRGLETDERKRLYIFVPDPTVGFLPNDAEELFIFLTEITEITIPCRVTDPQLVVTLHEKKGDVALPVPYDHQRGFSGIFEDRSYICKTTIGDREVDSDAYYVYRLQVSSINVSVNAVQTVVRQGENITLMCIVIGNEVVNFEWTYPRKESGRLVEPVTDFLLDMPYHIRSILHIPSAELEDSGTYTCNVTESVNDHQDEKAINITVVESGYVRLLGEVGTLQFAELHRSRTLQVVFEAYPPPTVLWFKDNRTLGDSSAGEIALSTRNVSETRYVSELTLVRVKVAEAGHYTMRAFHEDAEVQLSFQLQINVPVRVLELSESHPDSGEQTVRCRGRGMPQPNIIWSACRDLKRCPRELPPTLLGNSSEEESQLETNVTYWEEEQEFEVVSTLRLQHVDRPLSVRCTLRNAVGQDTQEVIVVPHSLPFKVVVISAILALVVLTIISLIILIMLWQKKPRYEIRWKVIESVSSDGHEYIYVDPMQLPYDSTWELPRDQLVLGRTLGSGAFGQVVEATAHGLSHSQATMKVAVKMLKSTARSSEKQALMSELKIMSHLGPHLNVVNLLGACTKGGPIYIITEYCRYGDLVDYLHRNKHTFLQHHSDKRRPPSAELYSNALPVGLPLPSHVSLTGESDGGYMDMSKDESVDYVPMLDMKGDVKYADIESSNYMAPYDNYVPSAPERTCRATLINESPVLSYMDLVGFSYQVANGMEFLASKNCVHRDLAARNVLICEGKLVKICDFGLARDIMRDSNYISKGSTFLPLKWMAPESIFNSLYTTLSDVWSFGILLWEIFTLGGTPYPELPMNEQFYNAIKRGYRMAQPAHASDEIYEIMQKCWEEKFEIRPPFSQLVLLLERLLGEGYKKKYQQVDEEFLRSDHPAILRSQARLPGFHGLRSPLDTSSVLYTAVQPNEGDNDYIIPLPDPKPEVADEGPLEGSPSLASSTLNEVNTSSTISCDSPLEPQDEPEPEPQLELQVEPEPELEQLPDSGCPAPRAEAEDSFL

Tests used:
[1] = target: human B-Raf protein kinase (Homo sapiens, UniProt P15056); experiment: In vitro B-Raf/Mek1 composite kinase assay; conditions: read-out: B-Raf Kinase Assay IC50 μM
Procedure: In Vitro B-Raf/Mek1 Composite Kinase Assay
2.5 μl of B-Raf kinase buffer (20 mM MOPS [pH 7.2], 25 mM sodium glycerophosphate, 2 mM EGTA [pH 8.0], 1 mM sodium orthovanadate, 1 mM dithiothreitol, 10 mM MgCl2, 0.03% Brij-35, 0.3 mg/ml bovine serum albumin) containing lng of recombinant, N-terminal GST-tagged human B-Raf protein kinase (Δ1-415, Upstate Inc., cat. #14-530) is dispensed to wells of a 1536 multi-well white solid plate. 60 nl of 100× concentration of test compound in DMSO is dispensed to the well by passive pin transfer and incubated for 15 minutes at room temperature (approx. 22° C.). […] The assay plates are sealed and maintained in a humidified environment. After 2 hours, 2.5 μl of PKLight protein kinase assay reagent (Cambrex, cat. #LT07-501) is dispensed. After an additional 5 minute incubation at room temperature, luminescence activity is measured on a Molecular Devices Analyst multi-mode plate reader or other suitable plate reader. Kinase inhibition results in less ATP depletion, and therefore increased luminescence signal. Negative control activity is measured with DMSO lacking any test compound. The positive control is [N-(3-trifluoromethyl-4-chlorophenyl)-N′-(4-(2-methylcarbamoyl-pyridin-4-yl)oxyphenyl)urea], aka Bay 43-9006. Efficacy is measured as a percentage of positive control activity.

VEGFR2 kinase = VEGFR2 kinase (Homo sapiens, UniProt P35968); experiment: In vitro VEGFR2 kinase assay; conditions: read-out: VEGFR2 Assay IC50 μM
Procedure: (§1) In Vitro VEGFR2 and PDGFRP Kinase Assays
(§2) 2.5 μl of ADP Quest assay buffer (DiscoverX Inc., cat. #90-0071) containing 20 ng VEGFR2 kinase (Invitrogen Inc, cat. #PV3660) or 25 ng PDGFRβ kinase (Invitrogen Inc., cat. #P3082) is dispensed to wells of a 1536 multi-well, black solid plate. 60 nl of 100× concentration of test compound in DMSO is dispensed to the well by passive pin transfer and incubated for 10 minutes at room temperature (approx. 22° C.). 2.5 μl of ADP Quest assay buffer containing 0.25 μg of poly Glu:Tyr (4:1) substrate peptide (Upstate Inc., cat. #12-440) and 60 μM ATP is then dispensed and the kinase reaction allowed to incubate at 30° C. for 2 hours. […] After an additional 30 minute incubation at room temperature, fluorescence intensity is measured on a Molecular Devices Aquest multi-mode plate reader or other suitable plate reader (fluorescence excitation filter: 530/25 [Peak(nm)/FWHM passband(nm)]; dichroic beamsplitter: 561 nm longpass; fluorescence emission filter: 580/10 [Peak(nm)/FWHM passband(nm)]. The assay measures the conversion of a non-fluoresecent molecule to fluorescent resorufin, which correlates with kinase activity. Negative control activity is measured with DMSO lacking any test compound. The positive control is [N-(3-trifluoromethyl-4-chlorophenyl)-N′-(4-(2-methylcarbamoyl-pyridin-4-yl)oxyphenyl)urea], aka Bay 43-9006. […]

PDGFRβ kinase = PDGFRβ kinase (Homo sapiens, UniProt P09619); experiment: In vitro PDGFRβ kinase assay; conditions: read-out: PDGFRβ Assay IC50 μM
Procedure: as §1, §2

Measured: IC50

CCOc1cc(OCC)cc(C(=O)Nc2cccc(Oc3ccnc(-c4cnn(C)c4)c3)c2)c1
> 10 µM: all assays above
